These results are taken from patent US20240150322A1, “CDK9 Inhibitors” (Biolexis Therapeutics, Inc., priority 2022, published 2024).

This test relates to T1, CLK.
T1 construct: fused on or other part: vendor's panel tag (DNA tag or T7 phage of the KINOMEscan format)
Put plainly: scanMAX panel and Kd follow-up. The format is binding. The following applies: 1 μM.

With `CC(C)c1c2cc(-c3ccnc(N[C@H]4CC[C@H](N)C4)n3)ccc2nn1C` [Compound I-2, (1S,3S)-[3-[4-(3-isopropyl-2-methylindazol-5-yl)pyrimidin-2-yl]aminocyclopentan-1-yl]-1,3-diamine], the “% of control activity” value was 0-1%.
